{
  "source": "ChEMBL document CHEMBL1146669",
  "about": "“The development of potent non-peptidic PTP-1B inhibitors” (Bioorg Med Chem Lett, 2004)",
  "molecular_target": "T1, Tyrosine-protein phosphatase non-receptor type 1 (Homo sapiens, UniProt P18031)",
  "T1 sequence (P18031 whole entry)": "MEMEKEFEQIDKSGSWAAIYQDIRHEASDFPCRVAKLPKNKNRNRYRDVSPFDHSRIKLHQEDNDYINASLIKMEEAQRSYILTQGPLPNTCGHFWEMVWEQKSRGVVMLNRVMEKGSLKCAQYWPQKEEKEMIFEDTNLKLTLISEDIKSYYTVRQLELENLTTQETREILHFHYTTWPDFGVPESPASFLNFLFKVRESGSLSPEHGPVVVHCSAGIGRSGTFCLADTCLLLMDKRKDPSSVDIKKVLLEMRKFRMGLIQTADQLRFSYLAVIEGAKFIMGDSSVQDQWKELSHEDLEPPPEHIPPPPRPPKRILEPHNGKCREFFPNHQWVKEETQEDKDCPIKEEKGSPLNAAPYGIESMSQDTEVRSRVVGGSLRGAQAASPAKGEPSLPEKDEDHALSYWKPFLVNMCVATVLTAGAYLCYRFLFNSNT",
  "test": "In vitro inhibitory activity against protein tyrosine phosphatase 1B (PTP1B) was determined in fluorescein diphosphate (FDP) assay",
  "data": [
    {"compound": "O=C(c1ccccc1)C(Cc1ccc(C(F)(F)P(=O)(O)O)c(Br)c1)c1ccccc1", "note": "(stereo unspecified)", "values": [
      {"measurement": "IC50", "value": 120, "unit": "nM"}
    ]}
  ]
}
